“Also recorded” adds a separate entry of the source.
Tested on: single housed hyper-aggressive male Swiss mice
Assay: Isolation-induced aggression model, two mouse social interaction test
Format: in vivo
Text: This model has been chosen as it is considered to have excellent predictive validity toward human aggression and face validity for modelling offensive impulsive aggression in human aggression and it leads specifically to alterations in aggressive behaviour without confounding changes in other behaviours. This model has also been used for the screening/identification of potential serenics for use in treating aggression/agitation in dementias and related disorders.
Eighty male Swiss mice (ARC, Perth, Australia) aged 6-7 weeks upon arrival were used for objectives (1) and (3) in this study, 30 mice of the same age and strain were used for objective (2). Subjects were housed four per cage in a temperature-controlled colony room (22° C.±1° C.) under standard laboratory conditions (12-hour light/dark cycle; light phase 0700-1900 hours) upon arrival. Mice were housed in standard IVC cages. Mice had ad libitum access to food and water in their home cages. All experiments were performed during the light phase. All experimental procedures were approved by University of Sydney Animal Ethics Committee.
After allowing 1 week for acclimatisation, n=64 mice were rendered hyper-aggressive by moving them into single housing, whereas n=16 animals were housed in groups of four. During this time, all mice were weighed at least once per week. […]

Structure (SMILES): Cc1nc2n(c(=O)c1CCN1CCC(c3noc4cc(F)ccc34)CC1)CCCC2 [risperidone, reference compound]
- distance travelled vs vehicle treated single housed mice (Example 4: 0.1 mg/kg risperidone or 10 mg/kg KNX100 dihydrochloride salt): travelled significantly less distance; also recorded: significantly reduced distance travelled
- distance travelled / locomotor activity, risperidone compared with KNX100 (Example 4: 0.1 mg/kg risperidone vs 10 mg/kg KNX100): also travelled significantly less distance than mice treated with 10 mg/kg KNX100; also recorded: caused significantly more inhibition of locomotor activity than KNX100

— US20240139206A1, “METHODS OF TREATMENT” (Kinoxis Therapeutics Pty Ltd, priority 2021, published 2024)
